Assay results as given in US12569478B2 (priority 2021, dated 2026).

Experiment: Safety assessment in study subjects (Example 1)
Conditions: all study subjects

**Q.** With `C[C@]12N3Cc4c(OCCCS(=O)(=O)O)ccc(OCCCS(=O)(=O)O)c4CN1C(=O)N1CN4C(=O)N5CN6C(=O)N7CN8C(=O)N9Cc%10c(OCCCS(=O)(=O)O)ccc(OCCCS(=O)(=O)O)c%10CN%10C(=O)N(CN%11C(=O)N(CN%12C(=O)N(CN(C3=O)[C@]12C)[C@@H]4[C@H]%125)[C@@H]6[C@H]%117)[C@]8(C)[C@@]9%10C` as the molecule, how does the “tolerability in safety assessment” value read?
**A.** Its value is “well tolerated”.
